Experimental data as given in patent US9403830B2, “Inhibitors of leukotriene production” (Boehringer Ingelheim International GmbH, priority 2012, dated 2016).

Amino acid sequences for entries named in this document (tags omitted).
UniProt P09960, whole entry: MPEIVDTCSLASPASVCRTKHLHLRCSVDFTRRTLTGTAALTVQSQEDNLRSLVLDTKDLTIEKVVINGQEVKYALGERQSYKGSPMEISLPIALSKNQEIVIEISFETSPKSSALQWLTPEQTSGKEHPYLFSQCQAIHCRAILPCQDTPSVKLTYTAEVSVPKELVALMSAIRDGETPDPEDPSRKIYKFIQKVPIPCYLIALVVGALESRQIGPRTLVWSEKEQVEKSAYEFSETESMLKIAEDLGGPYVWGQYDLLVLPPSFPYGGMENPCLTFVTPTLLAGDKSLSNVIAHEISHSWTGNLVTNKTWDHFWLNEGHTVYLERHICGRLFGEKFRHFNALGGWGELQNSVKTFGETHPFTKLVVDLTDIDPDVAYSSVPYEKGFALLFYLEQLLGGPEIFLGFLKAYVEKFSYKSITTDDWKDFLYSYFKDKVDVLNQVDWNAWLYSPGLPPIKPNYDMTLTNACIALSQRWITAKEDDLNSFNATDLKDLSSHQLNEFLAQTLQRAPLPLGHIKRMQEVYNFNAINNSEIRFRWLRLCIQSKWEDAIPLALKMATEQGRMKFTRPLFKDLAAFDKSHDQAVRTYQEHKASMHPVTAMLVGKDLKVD

Legend:
[1] = target: human LTA4 hydrolase (Homo sapiens, UniProt P09960); experiment: LTA4H Enzyme assay (peptidase, Arg-AMC cleavage); settings: read-out: Peptidase IC50; LTA4H enzyme 1 nM, Arg-AMC substrate 50 μM, room temperature 1 h, fluorescence 380/460 nm
Description: The compounds of the invention are assessed for the ability to interact with human LTA4 hydrolase in an enzymatic assay that measures the ability of the enzyme to cleave the peptide bond of arginyl-aminomethylcoumarin (Arg-AMC). LTA4H Enzyme (1 nM final), Arg-AMC substrate (50 μM final), and compound are combined in a reaction buffer (50 mM Tris-HCl (pH 7.5), 100 mM KCl, 0.5% bovine serum albumin) at room temperature for 1 h. The formation of product is assessed by measuring the fluorescence of aminomethylcoumarin product (excitation wavelength 380 nm/emission wavelength 460 nm). In general, the preferred potency range (IC50) of compounds in the LTA4H Enzyme assay is between 0.1 nM to 10 μM, the more preferred potency range is 0.1 nM to 0.1 μM, and the most preferred potency range is 0.1 nM to 10 nM.

[2] = system: LTB4 synthesis in human whole blood; experiment: human whole blood (HWB) assay, inhibition of LTB4 production; settings: read-out: IC50 values of LTB4 production inhibition assay in human whole blood; heparinized human whole blood, calcimycin 20 μM stimulation, plasma LTB4
Description: The compounds of the invention are additionally tested in a human whole blood (HWB) assay to determine their ability to inhibit the synthesis of LTB4 in a cellular system. Compounds are combined with heparinized human whole blood and incubated for 15 minutes at 37° C. Calcimycin (20 μM final, prepared in phosphate-buffered saline, pH 7.4) is then added and the mixture is incubated for another 30 minutes at 37° C. The samples are centrifuged for 5 min at low speed (1500×g) and the plasma layer is removed. Plasma LTB4 concentrations are then measured using an antibody-based homogenous time-resolved fluorescence method (CisBio, Bedford, Mass.). In general, the preferred potency range (IC50) of compounds in the HWB assay is between 10 nM to 10 μM, the more preferred potency range is 10 nM to 1 μM, and the most preferred potency range is 10 nM to 100 nM.

| SMILES | IC50 [1] [nM] | IC50 [2] [nM] |
| --- | --- | --- |
| CC(=O)N[C@@H]1CCN(CCn2ncc3cc(Oc4ccc(-c5ccn[nH]5)cc4)ccc32)C1 | 0.38 | 110 |
| COCC(=O)NC1CCN(CCn2ncc3cc(Oc4ccc(-c5ccn[nH]5)cc4)ccc32)CC1 | 0.61 | 190 |
| O=C1CCCN1C1CCN(CCn2ncc3cc(Oc4ccc(-c5ccn[nH]5)cc4)ccc32)CC1 | 0.33 | 140 |
| CC(=O)NC1CCN(CCn2ncc3cc(Oc4ccc(-c5ccn[nH]5)cc4)ccc32)CC1 | 0.23 | 130 |
